Test results from article PMC2972214.

Amino acid sequences for entries named in this document (tags omitted). Residues count along the entry.
UniProt P00747, 20-810: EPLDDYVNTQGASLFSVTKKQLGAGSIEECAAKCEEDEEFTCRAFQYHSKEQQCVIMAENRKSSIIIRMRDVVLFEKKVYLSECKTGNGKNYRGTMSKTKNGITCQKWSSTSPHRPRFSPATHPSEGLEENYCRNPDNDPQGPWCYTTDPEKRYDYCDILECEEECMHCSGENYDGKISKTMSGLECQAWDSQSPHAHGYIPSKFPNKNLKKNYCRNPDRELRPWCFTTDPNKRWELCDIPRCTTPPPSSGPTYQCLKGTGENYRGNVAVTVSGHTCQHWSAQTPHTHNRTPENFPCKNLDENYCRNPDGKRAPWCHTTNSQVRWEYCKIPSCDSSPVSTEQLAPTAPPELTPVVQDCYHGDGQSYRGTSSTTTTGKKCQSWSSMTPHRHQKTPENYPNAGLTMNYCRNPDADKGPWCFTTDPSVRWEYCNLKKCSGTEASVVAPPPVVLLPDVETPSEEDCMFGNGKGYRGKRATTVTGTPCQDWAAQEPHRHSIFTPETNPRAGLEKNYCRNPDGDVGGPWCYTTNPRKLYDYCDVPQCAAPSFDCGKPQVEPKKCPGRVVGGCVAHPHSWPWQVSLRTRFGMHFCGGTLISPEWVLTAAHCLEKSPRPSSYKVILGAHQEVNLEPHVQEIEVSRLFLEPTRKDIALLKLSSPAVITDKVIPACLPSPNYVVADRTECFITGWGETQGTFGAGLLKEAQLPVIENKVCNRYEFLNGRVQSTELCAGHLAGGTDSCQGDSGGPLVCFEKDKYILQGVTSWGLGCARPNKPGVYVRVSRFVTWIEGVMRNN

Biological target: human plasminogen (human) (UniProt P00747)
Test: SPR
Details: natural protein

Substance: recombinant α-enolase of Streptococcus oralis SV18 (IPM …) (from UniProt A0A1X1IR15 1-434)
- Kd: 200 nM
